Yeast mating assay 2: variants of the scFv Ab-95

The target is the same throughout: PDVDLGDISGINAS, from the HR2 region of SARS-CoV-2 spike.

Parent: Ab-95, a human scFv built as VH, a (GGGGS)3 linker, VL. Only the CDRs of the light chain vary.
VH: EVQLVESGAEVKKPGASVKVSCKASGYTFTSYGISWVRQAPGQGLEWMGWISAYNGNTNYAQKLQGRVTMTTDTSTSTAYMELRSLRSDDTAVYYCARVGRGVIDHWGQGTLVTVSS
VL: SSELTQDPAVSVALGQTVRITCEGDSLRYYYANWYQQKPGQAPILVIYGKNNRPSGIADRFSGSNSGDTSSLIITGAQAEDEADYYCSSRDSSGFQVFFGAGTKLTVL

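AAYL52 was designed without a model: most single CDR substitutions and a random sample of double and triple ones. The scFvs were displayed on barcoded MATa yeast, the peptide on MATalpha yeast. The frequency of each diploid, read from paired DNA barcodes, reflects how well the two displayed proteins bind. Each replicate has its own calibration line, from reference interactions of the BCL2 family. The assay was run in three technical replicates.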

Each variant's VL is given in full. All variants listed here change A32 of the VL, counted from its first residue. Kd is apparent (estimated from mating counts) and averaged on the log scale over replicates with a signal. Smaller is tighter. "not detected" means that the variant was in the library but no mating with the target was seen in any replicate; the authors take this as a sign of poor binding, and no number exists. Nonspecific signal, from three strains lacking the peptide, appeared in 28% of pairings of library AAYL52, centred on 8.2 µM (5% of these signals below 800 nM); values are not corrected for it. Parent in this assay: reference entry 200 nM, copy in this library 180 nM.

| VL | Kd (apparent) | replicates with signal |
|---|---|---|
| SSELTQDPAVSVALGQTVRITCEGDSLRYYYQNWYQQKPGQAPILVIYGKNNRVSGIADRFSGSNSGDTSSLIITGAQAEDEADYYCSSRDSSGFQKFFGAGTKLTVL | not detected | 0 of 3 |
| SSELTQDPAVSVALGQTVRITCEQDSLRYYYFNWYQQKPGQAPILVIYGKYNRPSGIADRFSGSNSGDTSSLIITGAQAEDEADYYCSSRDSSGFQVFFGAGTKLTVL | not detected | 0 of 3 |
| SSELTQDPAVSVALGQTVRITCEGDSLRYYYCNWYQQKPGQAPILVIYGKNNRPSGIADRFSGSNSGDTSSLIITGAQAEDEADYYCSSRNSSGFQVFFGAGTKLTVL | 920 nM | 3 of 3 |
| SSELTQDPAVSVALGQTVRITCEGDSLRYYYYNWYQQKPGQAPILVIYGKNNRPSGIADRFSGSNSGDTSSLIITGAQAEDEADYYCLSRDSKGFQVFFGAGTKLTVL | 4.5 µM | 1 of 3 |
| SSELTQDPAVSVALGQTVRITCEGDSLRYYYENWYQQKPGQAPILVIYGKNNRPSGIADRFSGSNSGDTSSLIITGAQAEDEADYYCESRDSSGFIVFFGAGTKLTVL | 9.9 µM | 3 of 3 |
| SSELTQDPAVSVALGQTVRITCEGDSLRKYYKNWYQQKPGQAPILVIYGKNNRGSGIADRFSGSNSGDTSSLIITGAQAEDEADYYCSSRDSSGFQVFFGAGTKLTVL | 1.3 µM | 2 of 3 |
| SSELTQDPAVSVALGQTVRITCSGDSLRYYYQNWYQQKPGQAPILVIYGKNNRPSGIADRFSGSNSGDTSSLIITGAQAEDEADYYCSSRDRSGFQVFFGAGTKLTVL | 200 nM | 3 of 3 |
| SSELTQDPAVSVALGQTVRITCEGDELRYYYTNWYQQKPGQAPILVIYGKNNRPSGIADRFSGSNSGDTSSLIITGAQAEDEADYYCSSRDSSGFGVFFGAGTKLTVL | 13 µM | 3 of 3 |
| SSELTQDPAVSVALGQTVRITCEGDSLRYYRCNWYQQKPGQAPILVIYGKNNRPSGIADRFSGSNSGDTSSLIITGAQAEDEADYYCSSRDSSGFWVFFGAGTKLTVL | 930 nM | 1 of 3 |
| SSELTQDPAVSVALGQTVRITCEGDHLRYYYGNWYQQKPGQAPILVIYGENNRPSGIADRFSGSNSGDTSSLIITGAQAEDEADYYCSSRDSSGFQVFFGAGTKLTVL | 3.8 µM | 3 of 3 |
| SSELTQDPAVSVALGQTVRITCEGDSLRYGYHNWYQQKPGQAPILVIYGKNNRPSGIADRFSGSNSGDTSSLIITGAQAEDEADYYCSSRDHSGFQVFFGAGTKLTVL | 140 nM | 3 of 3 |
| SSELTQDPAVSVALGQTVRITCGGDSLRYYYRNWYQQKPGQAPILVIYGKNNRPGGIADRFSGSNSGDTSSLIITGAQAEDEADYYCSSRDSSGFQVFFGAGTKLTVL | 7.0 µM | 3 of 3 |
| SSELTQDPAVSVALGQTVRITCEGDSLRYYRVNWYQQKPGQAPILVIYGKNNRPSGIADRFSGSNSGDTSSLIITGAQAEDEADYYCSSRDSSGFNVFFGAGTKLTVL | 1.7 µM | 3 of 3 |
| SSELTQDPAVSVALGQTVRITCEGDSLRYYYNNWYQQKPGQAPILVIYGKNNHPSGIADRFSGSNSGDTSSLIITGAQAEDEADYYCSSRASSGFQVFFGAGTKLTVL | 12 µM | 1 of 3 |
| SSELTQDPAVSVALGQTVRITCEGDSHRSYYDNWYQQKPGQAPILVIYGKNNRPSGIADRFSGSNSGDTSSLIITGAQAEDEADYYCSSRDSSGFQVFFGAGTKLTVL | 27 µM | 2 of 3 |
| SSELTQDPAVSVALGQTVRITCEGDSLRYYYDNWYQQKPGQAPILVIYGKNNRPSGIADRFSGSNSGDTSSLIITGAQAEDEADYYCSSRDSHGFQVFFGAGTKLTVL | not detected | 0 of 3 |
| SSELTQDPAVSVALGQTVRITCEGDSLRYYYDNWYQQKPGQAPILVIYGKNCHPSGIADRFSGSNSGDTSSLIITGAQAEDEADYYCSSRDSSGFQVFFGAGTKLTVL | not detected | 0 of 3 |
| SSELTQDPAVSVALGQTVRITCEGDSLRYYYGNWYQQKPGQAPILVIYGKNNRPSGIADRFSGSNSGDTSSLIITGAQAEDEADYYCSSRDLSGFQFFFGAGTKLTVL | 3.9 µM | 3 of 3 |
| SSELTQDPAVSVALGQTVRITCEGDSLRRDYKNWYQQKPGQAPILVIYGKNNRPSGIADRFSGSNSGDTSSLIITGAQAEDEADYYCSSRDSSGFQVFFGAGTKLTVL | 6.4 µM | 3 of 3 |

Picked from the list: the 3 lowest averages where every replicate gave a value.

VL	Kd (apparent)	replicates with signal
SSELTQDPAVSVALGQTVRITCEGDSLRYGYHNWYQQKPGQAPILVIYGKNNRPSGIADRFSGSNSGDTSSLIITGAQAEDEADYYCSSRDHSGFQVFFGAGTKLTVL	140 nM	3 of 3
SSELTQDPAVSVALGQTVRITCSGDSLRYYYQNWYQQKPGQAPILVIYGKNNRPSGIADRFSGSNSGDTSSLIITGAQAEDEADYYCSSRDRSGFQVFFGAGTKLTVL	200 nM	3 of 3
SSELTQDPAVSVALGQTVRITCEGDSLRYYYCNWYQQKPGQAPILVIYGKNNRPSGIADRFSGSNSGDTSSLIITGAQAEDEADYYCSSRNSSGFQVFFGAGTKLTVL	920 nM	3 of 3

Reference: Engelhart et al. 2022, doi:10.1038/s41597-022-01779-4. File: FLAb, binding data.